Results: patent US7119100B2, “Oripavine derivatives and their uses as pharmaceuticals” (dated 2006)

How the values were obtained:
mice [1] = assay: acetic acid writhing test
mice [2] = assay: mice 55° C. hot plate test (sc/po); conditions: for hot plate test Max. efficacy: hydrochloride

Row | Structure (SMILES) | acetic acid writhing test ED50 (mice [1]) | acetic acid writhing test Max. efficacy (mice [1]) | hot plate test ED50 (mice [2]) | hot plate test Max. efficacy (mice [2])
1 | COC12CCC3(CC1C(C)(O)CC1CC1)C1Cc4ccc(O)c5c4C3(CCN1CC1CC1)C2O5 (centres unmarked) | 0.00639 mg/kg | 100.0% | 0.2 mg/kg | 71.2%
2 | COC12CCC3(CC1C(C)(O)CC1CCCC1)C1Cc4ccc(O)c5c4C3(CCN1CC1CC1)C2O5 (centres unmarked) | 0.0559 mg/kg | 100% | 0.05 mg/kg | 54.2%
